# Reference: PMC5518105, “Identification and characterization of the antiplasmodial activity of Hsp90 inhibitors” (Malaria Journal, 2017)
# Sequences of proteins named here, by UniProt entry; tags and fusion partners are left off.
# UniProt Q8IC05, entry or part of it: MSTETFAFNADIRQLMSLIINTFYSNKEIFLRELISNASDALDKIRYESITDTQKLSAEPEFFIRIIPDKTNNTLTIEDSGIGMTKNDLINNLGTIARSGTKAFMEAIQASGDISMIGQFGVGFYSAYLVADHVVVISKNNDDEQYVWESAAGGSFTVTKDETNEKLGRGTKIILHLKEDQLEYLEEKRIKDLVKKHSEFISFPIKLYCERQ
# UniProt Q8I0V4, entry or part of it: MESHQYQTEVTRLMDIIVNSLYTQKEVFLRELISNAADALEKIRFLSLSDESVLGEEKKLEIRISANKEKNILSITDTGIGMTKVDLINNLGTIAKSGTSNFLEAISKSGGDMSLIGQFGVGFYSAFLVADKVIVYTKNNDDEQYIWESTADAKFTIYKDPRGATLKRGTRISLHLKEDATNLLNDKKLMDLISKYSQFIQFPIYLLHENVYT
# Columns and labels:
# P. falciparum Hsp90 = P. falciparum Hsp90 (Plasmodium falciparum, UniProt Q8IC05); assay: biochemical; format: binding
# P. falciparum Grp94 = P. falciparum Grp94 (Plasmodium falciparum, UniProt Q8I0V4); assay: biochemical; format: binding
smiles,measurement,setting,value
CC(C)NCCCn1c(Sc2cc3c(cc2I)OCO3)nc2c(N)ncnc21 [PUH71],Kd,P. falciparum Hsp90,0.015 µM
same,Kd,P. falciparum Grp94,6.43 µM
same,ka,P. falciparum Grp94,5830 M⁻¹ s⁻¹
same,kd,P. falciparum Grp94,0.006 s⁻¹
